Patent US9796704B2, “Substituted quinazolines as receptor-type kinase inhibitors” (Symphony Evolution, Inc., priority 2002, dated 2017)
pIC50: −log10 of the molar value.

By UniProt entry, the sequences of proteins in these tests, tags left out. Residues count along the entry.
UniProt P29317, 598-890: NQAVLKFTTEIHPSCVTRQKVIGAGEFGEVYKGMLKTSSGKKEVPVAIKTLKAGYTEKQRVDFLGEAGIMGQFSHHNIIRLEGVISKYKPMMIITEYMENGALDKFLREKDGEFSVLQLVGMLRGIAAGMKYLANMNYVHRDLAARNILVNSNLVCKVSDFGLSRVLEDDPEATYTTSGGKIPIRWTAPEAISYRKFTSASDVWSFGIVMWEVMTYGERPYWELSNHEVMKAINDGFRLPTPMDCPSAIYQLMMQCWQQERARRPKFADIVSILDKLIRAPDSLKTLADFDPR
UniProt P54760, 605-890: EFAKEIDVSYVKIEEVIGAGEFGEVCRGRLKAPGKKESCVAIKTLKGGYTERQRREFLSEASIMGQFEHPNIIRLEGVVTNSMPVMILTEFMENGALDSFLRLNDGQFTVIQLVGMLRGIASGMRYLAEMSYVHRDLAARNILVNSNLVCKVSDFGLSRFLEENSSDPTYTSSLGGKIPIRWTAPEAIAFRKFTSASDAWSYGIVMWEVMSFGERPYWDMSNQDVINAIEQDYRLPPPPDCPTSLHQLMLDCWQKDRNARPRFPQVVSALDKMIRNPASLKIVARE

Tests used:
[1] = target: EphA2 (Homo sapiens (Human), UniProt P29317); test: EphA2 kinase inhibition, luciferase-coupled chemiluminescent assay (LCCA); conditions: read-out: EphA2 IC50
[2] = target: EphB4 (Homo sapiens (Human), UniProt P54760); test: EphB4 kinase inhibition, 33P phosphoryl transfer assay (radiometric); format: biochemical
Experimental: Phosphorylated substrate products are quantified by scintillation spectrometry.
Kinase activity and compound inhibition are investigated using one or more of the three assay formats described below. The ATP concentrations are selected near its Michaelis-Menten constant (KM) for each individual kinase. Dose-response experiments are performed at ten different inhibitor concentrations in a 384-well plate format. […] These parameters are obtained by nonlinear regression algorithm built into ActivityBase software (available from ID Business Solutions Ltd., of Guildford, Surrey, UK). ^33P Phosphoryl Transfer Assay (Radiometric)
Greiner 384-well white clear bottom high binding plates (available from Greiner Bio-One, Inc., of Longwood, Fla.) are coated with 2 μg/well of protein or peptide substrate in a 50 μL volume overnight at ambient temperature. […] The coating solution is aspirated and the plates are washed once with 50 μL of assay buffer and padded dry. Subsequently compounds and enzymes are mixed with γ ^33P-ATP (3.3 μCi/nmol) in a total volume of 20 uL in suitable assay buffers (see Table 2). For example the final EphB4 reaction solution contains 20 mM TrisHCl, pH 7.5, 10 mM MgCl2, 0.01% Triton X-100, 0.1 mM NaVO3, 5 nM EphB4 enzyme and 5 μM ATP. […] The plates are subsequently washed 6-12 times with PBST or TBS buffer.

| SMILES | pIC50 [1] | pIC50 [2] |
| --- | --- | --- |
| COc1cc2c(Nc3ccc(Cl)c(Cl)c3F)ncnc2cc1OC[C@@H]1CN2CCCC[C@@H]2C(=O)N1 [Example 50, (3S,9aR)-3-({[4-[(3,4-dichloro-2-fluorophenyl)amino]-6-(methyloxy)quinazolin-7-yl]oxy}methyl)hexahydro-2H-pyrido[1,2-a]pyrazin-1(6H)-one] | 4.70 to 6.00 |  |
| COc1cc2c(Nc3ccc(Br)c(Cl)c3)ncnc2cc1O[C@H]1CO[C@H]2[C@@H]1OC[C@H]2OC [Example 78, 1,4:3,6-dianhydro-2-O-[4-[(4-bromo-3-chlorophenyl)amino]-6-(methyloxy)quinazolin-7-yl]-5-O-methyl-D-glucitol] | > 7.30 |  |
| COc1cc2c(Nc3ccc(Cl)c(Cl)c3)ncnc2cc1OCC1CNCCO1 (stereo not shown) [Example 144, N-(3,4-dichlorophenyl)-6-(methyloxy)-7-[(morpholin-2-ylmethyl)oxy]quinazolin-4-amine] |  | 6.00 to 7.30 |
| COc1cc2c(Nc3ccc(Cl)c(Cl)c3)ncnc2cc1OCC1CNCCCO1 (stereo not shown) [Example 152, N-(3,4-dichlorophenyl)-6-(methyloxy)-7-[(1,4-oxazepan-2-ylmethyl)oxy]quinazolin-4-amine] |  | 6.00 to 7.30 |
